Measurements as given in US20190308988A1, “OPIOID RECEPTOR ANTAGONIST PRODRUGS” (Nirsum Laboratories, Inc., priority 2017, published 2019).

Sequences of proteins named here, by UniProt entry; tags and fusion partners are left off. A change or cut given only in a name is not applied to a line headed by its entry.
UniProt P41145: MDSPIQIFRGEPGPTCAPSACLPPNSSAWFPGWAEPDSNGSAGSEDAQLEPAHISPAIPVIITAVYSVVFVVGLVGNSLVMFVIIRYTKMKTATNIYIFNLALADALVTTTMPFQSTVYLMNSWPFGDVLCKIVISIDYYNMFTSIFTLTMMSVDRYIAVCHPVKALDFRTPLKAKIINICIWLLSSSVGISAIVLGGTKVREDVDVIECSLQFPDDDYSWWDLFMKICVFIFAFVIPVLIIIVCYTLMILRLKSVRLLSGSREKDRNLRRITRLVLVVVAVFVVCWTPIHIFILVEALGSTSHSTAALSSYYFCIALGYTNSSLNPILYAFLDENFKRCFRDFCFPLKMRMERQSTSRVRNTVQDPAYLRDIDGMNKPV

Molecular target: T1, KOR (Homo sapiens, UniProt P41145)
T1 construct: expressed in transfected cells
Assay: Opioid receptor binding assay, KOR ([3H]Diprenorphine)
Details: [3H]Diprenorphine 0.3 nM
Experimental: Receptor binding assays were performed to assess the ability of compounds to inhibit binding to radiolabeled ligand. […] The general observation is that prodrug derivatization greatly reduces the binding affinity to the opioid receptors, in some cases by several orders of magnitude.
The stable cell lines were established and prepared cell membrane obtained using these cell lines.
1) Transfer 1 μl of specified concentration compound to assay plate according to the plate map for nonspecific binding. Transfer 1 μl of DMSO to assay plate according to plate map for total binding. 2) Follow the plate map. Dispense 99 μl of membrane stocks into the plate. 3) Add 100 μl of radio ligand. 4) Seal the plates. Incubate at RT for 1 hour. 5) Soak the Unifilter-96 GF/C filter plates with 50 μl of 0.3% PEI per well for at least 0.5 hour at room temperature. 6) When binding assays are completed, filter the reaction mixture through GF/C plates using Perkin Elmer Filtermate Harvester, and then wash each plate for 4 times with cold wash buffer. 7) Dry the filter plates for 1 hour at 50 degrees. 8) After drying, seal the bottom of the filter plate wells using Perkin Elmer Unifilter-96 backing seal tape. Add 50 μl of Perkin Elmer Microscint 20 cocktail. Seal top of filter plates with Perkin Elmer TopSeal-A sealing film. 9) Count ^3H trapped on filter using Perkin Elmer MicroBeta2 Reader second day. […]

C=C1CC[C@@]2(O)[C@H]3Cc4ccc(O)c5c4[C@@]2(CCN3CC2CC2)[C@H]1O5 [nalmefene, 17-cyclopropylmethyl-4,5α-epoxy-6-methylenemorphinan-3,14-diol, reference compound]
IC50: 2 nM
